The entries are a selection whose mix differs from that of the whole data set. Activity calls are given as the source filed them. Cut-off read from the data, not from the text of the source: active = inhibition above about 31%; inactive = the rest.

The assay in a line: 384-well plate pilot, post-Golgi transport modulator project, inhibition of yeast transport mutant growth (AID 636). The note with it: absorbance 615 nm, about 18 h, active compounds read high.
For the compound `Fc1ccccc1NC1CCN(Cc2ccccc2)CC1`, the inhibition is inactive: 1.56%.

(Values after PubChem BioAssay AID636 (SRMLSC, 2007).)
